The record followed here is patent US8501754B2, “Quinazolinamide derivatives” (MERCK PATENT GmbH, priority 2007, dated 2013).

This test has as its target Recombinant human HSP90a (Homo sapiens, UniProt P07900). The test is described as follows: radioligand filter binding test ([3H]17AAG competition) for HSP90 inhibition. Particulars: read-out: HSP90 inhibition IC50; competition with [3H]17AAG 0.08 μM, HSP90 1.5 μg/assay, 22° C., 30 min.

As for `COc1ccccc1N(C)C(=O)c1nc(N)nc2ccc(I)cc12`, the IC50 fell in the range of 10 to 1000 nM.

A word on the IC50: it is the concentration that gives 50% inhibition.
